The values that follow come from patent US12528786B2, “Plasma kallikrein inhibitors” (Merck Sharp & Dohme LLC, priority 2020, dated 2026).

By UniProt entry, the sequences of proteins in these tests, tags left out. Residues count along the entry.
UniProt P03952, 391-638 limits assumed: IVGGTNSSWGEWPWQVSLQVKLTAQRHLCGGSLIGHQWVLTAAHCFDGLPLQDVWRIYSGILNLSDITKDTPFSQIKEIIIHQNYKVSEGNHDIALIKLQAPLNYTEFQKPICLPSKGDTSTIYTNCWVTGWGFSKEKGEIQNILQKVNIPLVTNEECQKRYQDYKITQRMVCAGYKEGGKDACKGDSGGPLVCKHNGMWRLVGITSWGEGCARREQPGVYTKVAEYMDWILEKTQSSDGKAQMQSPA
UniProt P03952, 20-390 partner limits assumed: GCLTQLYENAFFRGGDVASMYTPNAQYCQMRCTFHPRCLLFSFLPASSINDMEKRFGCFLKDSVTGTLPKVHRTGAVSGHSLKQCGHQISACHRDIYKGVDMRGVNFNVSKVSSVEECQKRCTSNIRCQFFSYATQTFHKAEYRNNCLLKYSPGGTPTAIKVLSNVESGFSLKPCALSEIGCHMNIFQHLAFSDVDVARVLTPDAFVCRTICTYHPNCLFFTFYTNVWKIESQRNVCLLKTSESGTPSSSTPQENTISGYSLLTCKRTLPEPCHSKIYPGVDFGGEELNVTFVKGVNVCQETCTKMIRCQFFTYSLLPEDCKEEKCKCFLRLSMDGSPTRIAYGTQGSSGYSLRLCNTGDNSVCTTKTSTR

The target of this assay is Human plasma kallikrein (Homo sapiens, UniProt P03952). Description: Kallikrein Assay (fluorogenic substrate hydrolysis, AFC release). The conditions noted are these: read-out: Plasma Kallikrein IC50; purified Human plasma kallikrein 0.5 nM; substrate Acetyl-K—P—R-AFC 100 mM; 50 mM HEPES pH 7.4. The procedure: The effectiveness of a compound of the present invention as an inhibitor of Kallikrein can be determined using a relevant purified serine protease, and an appropriate synthetic substrate. The rate of hydrolysis of the chromogenic or fluorogenic substrate by the relevant serine protease was measured both in the absence and presence of compounds of the present invention. Assays were conducted at room temperature or at 37° C. […] A decrease in the rate of fluorescence change in the presence of inhibitor is indicative of enzyme inhibition. Such methods are known to one skilled in the art. The results of this assay are expressed as the half-maximal inhibitory concentrations (IC50), or the inhibitory constant, Ki. […]
Activity assays were performed by diluting a stock solution of substrate at least tenfold to a final concentration ≤0.2 Km into a solution containing enzyme or enzyme equilibrated with inhibitor. Times required to achieve equilibration between enzyme and inhibitor were determined in control experiments. The reactions were performed under linear progress curve conditions and fluorescence increase measured at 405 Ex/510 Em nm. […] IC50 was determined by inflection point from a four parameter logistic curve fit. Ki was calculated using the Cheng Prusoff equation, Ki=IC50/(1+([S]/Km)).

In the case of `Cc1cc(N2C[C@H]3C[C@H]3C2=O)ncc1C(C)n1cc(C(=O)N[C@H]2C[C@@H](c3cc(Cl)ccc3C#N)C2)cn1` (single isomer, unassigned) [Example 7], the IC50 was determined as 0.3 nM.
Consider `Cc1cc(N2C[C@H]3C[C@H]3C2=O)ncc1C(C)n1cc(C(=O)N[C@H]2C[C@@H](c3cc(Cl)ccc3C#N)C2)cn1` (single isomer, unassigned) [Example 8], for which the half-inhibitory concentration (IC50) amounted to 2.8 nM.

Usually IC50 stands for the point on the concentration scale where inhibition reaches its midpoint.
